# Measurements reported in patent publication US20090099157A1, “TETRAHYDRO-PYRAZOLO-PYRIDINE THIOETHER MODULATORS OF CATHEPSIN S” (priority 2007, published 2009).
# The chains behind the UniProt entries cited, without tags or fusion partners. Residues count along the entry.
# UniProt P25774, 115-331: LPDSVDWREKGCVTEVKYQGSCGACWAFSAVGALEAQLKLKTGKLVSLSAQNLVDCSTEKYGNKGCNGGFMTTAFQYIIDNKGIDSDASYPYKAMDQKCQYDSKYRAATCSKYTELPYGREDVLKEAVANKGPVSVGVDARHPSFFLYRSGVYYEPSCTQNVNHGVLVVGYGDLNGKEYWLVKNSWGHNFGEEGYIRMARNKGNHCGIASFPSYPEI
# Target: Recombinant human cathepsin S (CatS) (Homo sapiens, UniProt P25774)
# Test: biochemical
row,Compound,IC50 [nM]
1,"C[C@H]1COCCN1CCSc1cc(-c2nn(C[C@@H](O)CN3CCOCC3)c3c2CN(S(C)(=O)=O)CC3)ccc1C(F)(F)F [Example 223, (2S)-1-{3-[3-({2-[(3S)-3-Methylmorpholin-4-yl]ethyl}sulfanyl)-4-(trifluoromethyl)phenyl]-5-(methylsulfonyl)-4,5,6,7-tetrahydro-1H-pyrazolo[4,3-c]pyridin-1-yl}-3-morpholin-4-ylpropan-2-ol]",1100
2,"CN(C)S(=O)(=O)N1CCc2c(c(-c3ccc(C(F)(F)F)c(SCCN4CCC(F)CC4)c3)nn2C[C@@H](O)CN2CCCCC2)C1 [Example 566, 3-[3-{[2-(4-Fluoropiperidin-1-yl)ethyl]sulfanyl}-4-(trifluoromethyl)phenyl]-1-[(2S)-2-hydroxy-3-piperidin-1-ylpropyl]-N,N-dimethyl-1,4,6,7-tetrahydro-5H-pyrazolo[4,3-c]pyridine-5-sulfonamide]",140
3,"CC1CCN(CCSc2cc(-c3nn(C[C@@H](O)CN4CCC(C(C)(C)C)CC4)c4c3CN(S(C)(=O)=O)CC4)ccc2C(F)(F)F)CC1 [Example 643, (2S)-1-[4-(1,1-Dimethylethyl)piperidin-1-yl]-3-{3-[3-{[2-(4-methylpiperidin-1-yl)ethyl]sulfanyl}-4-(trifluoromethyl)phenyl]-5-(methylsulfonyl)-4,5,6,7-tetrahydro-1H-pyrazolo[4,3-c]pyridin-1-yl}propan-2-ol]",60
4,"CS(=O)(=O)N1CCc2c(c(-c3ccc(C(F)(F)F)c(SCCN4CCC(C(N)=O)CC4)c3)nn2C[C@@H](O)CN2CCCCC2)C1 [Example 218, 1-(2-{[5-{1-[(2S)-2-Hydroxy-3-piperidin-1-ylpropyl]-5-(methylsulfonyl)-4,5,6,7-tetrahydro-1H-pyrazolo[4,3-c]pyridin-3-yl}-2-(trifluoromethyl)phenyl]sulfanyl}ethyl)piperidine-4-carboxamide]",520
5,"CC(=O)N1CCN(CCSc2cc(-c3nn(CC(O)CN4CCC(c5ccccn5)CC4)c4c3CN(S(C)(=O)=O)CC4)ccc2C(F)(F)F)CC1 (stereo not shown) [Example 186, 1-{3-[3-{[2-(4-Acetylpiperazin-1-yl)ethyl]sulfanyl}-4-(trifluoromethyl)phenyl]-5-(methylsulfonyl)-4,5,6,7-tetrahydro-1H-pyrazolo[4,3-c]pyridin-1-yl}-3-(4-pyridin-2-ylpiperidin-1-yl)propan-2-ol]",1380
6,"CC(=O)N1CCc2c(c(-c3ccc(C(F)(F)F)c(SCC(=O)N4CCCC4)c3)nn2CC(O)CN2CCC(C)CC2)C1 (stereo not shown) [Example 280, 1-(5-Acetyl-3-{3-[(2-oxo-2-pyrrolidin-1-ylethyl)sulfanyl]-4-(trifluoromethyl)phenyl}-4,5,6,7-tetrahydro-1H-pyrazolo[4,3-c]pyridin-1-yl)-3-(4-methylpiperidin-1-yl)propan-2-ol]",190
7,"OC(CN1CCCCC1)Cn1nc(-c2ccc(C(F)(F)F)c(SCCN3CCC(F)(F)C3)c2)c2c1CCNC2 (stereo not shown) [Example 297, 1-{3-[3-{[2-(3,3-Difluoropyrrolidin-1-yl)ethyl]sulfanyl}-4-(trifluoromethyl)phenyl]-4,5,6,7-tetrahydro-1H-pyrazolo[4,3-c]pyridin-1-yl}-3-piperidin-1-ylpropan-2-ol]",3850
8,"CS(=O)(=O)N1CCc2c(c(-c3ccc(C(F)(F)F)c(SCCN4CCC(F)CC4)c3)nn2CC(O)CN2CCC[C@H]2CO)C1 (stereo partly drawn) [Example 491, 1-{3-[3-{[2-(4-Fluoropiperidin-1-yl)ethyl]sulfanyl}-4-(trifluoromethyl)phenyl]-5-(methylsulfonyl)-4,5,6,7-tetrahydro-1H-pyrazolo[4,3-c]pyridin-1-yl}-3-[(2S)-2-(hydroxymethyl)pyrrolidin-1-yl]propan-2-ol]",550
9,"CC(=O)N1CCc2c(c(-c3ccc(C(F)(F)F)c(SCC(=O)N4CCCC4)c3)nn2CC(O)CN2CCC(C(C)(C)C)CC2)C1 (stereo not shown) [Example 278, 1-(5-Acetyl-3-{3-[(2-oxo-2-pyrrolidin-1-ylethyl)sulfanyl]-4-(trifluoromethyl)phenyl}-4,5,6,7-tetrahydro-1H-pyrazolo[4,3-c]pyridin-1-yl)-3-[4-(1,1-dimethylethyl)piperidin-1-yl]propan-2-ol]",100
10,"CS(=O)(=O)N1CCc2c(c(-c3ccc(C(F)(F)F)c(SCCN4CCC(F)CC4)c3)nn2CC(O)CN2CCC(c3ccccn3)CC2)C1 (stereo not shown) [Example 189, 1-{3-[3-{[2-(4-Fluoropiperidin-1-yl)ethyl]sulfanyl}-4-(trifluoromethyl)phenyl]-5-(methylsulfonyl)-4,5,6,7-tetrahydro-1H-pyrazolo[4,3-c]pyridin-1-yl}-3-(4-pyridin-2-ylpiperidin-1-yl)propan-2-ol]",10
11,"NC(=O)N1CCc2c(c(-c3ccc(C(F)(F)F)c(SCCN4CCC(F)CC4)c3)nn2C[C@@H](O)CN2CCCCC2)C1 [Example 322, 3-[3-{[2-(4-Fluoropiperidin-1-yl)ethyl]sulfanyl}-4-(trifluoromethyl)phenyl]-1-[(2S)-2-hydroxy-3-piperidin-1-ylpropyl]-1,4,6,7-tetrahydro-5H-pyrazolo[4,3-c]pyridine-5-carboxamide]",230
12,"CS(=O)(=O)N1CCc2c(c(-c3ccc(C(F)(F)F)c(SCCNC4Cc5ccccc5C4)c3)nn2CCCN2CCC(N3CCCC3=O)CC2)C1 [Example 815, 1-[1-(3-{3-[3-{[2-(2,3-Dihydro-1H-inden-2-ylamino)ethyl]sulfanyl}-4-(trifluoromethyl)phenyl]-5-(methylsulfonyl)-4,5,6,7-tetrahydro-1H-pyrazolo[4,3-c]pyridin-1-yl}propyl)piperidin-4-yl]pyrrolidin-2-one]",290
13,"CS(=O)(=O)N1CCc2c(c(-c3ccc(C(F)(F)F)c(SCCN4CCC(O)CC4)c3)nn2CC(O)CN2CCC(NC(=O)CO)CC2)C1 (stereo not shown) [Example 699, 2-Hydroxy-N-[1-(2-hydroxy-3-{3-[3-{[2-(4-hydroxypiperidin-1-yl)ethyl]sulfanyl}-4-(trifluoromethyl)phenyl]-5-(methylsulfonyl)-4,5,6,7-tetrahydro-1H-pyrazolo[4,3-c]pyridin-1-yl}propyl)piperidin-4-yl]acetamide]",130
14,"COC(=O)C(=O)N1CCc2c(c(-c3ccc(C(F)(F)F)c(SCCN4CCOCC4)c3)nn2CC(O)CN2CCCCC2)C1 (stereo not shown) [Example 243, Methyl[1-(2-hydroxy-3-piperidin-1-ylpropyl)-3-{3-[(2-morpholin-4-ylethyl)sulfanyl]-4-(trifluoromethyl)phenyl}-1,4,6,7-tetrahydro-5H-pyrazolo[4,3-c]pyridin-5-yl](oxo)acetate]",600
15,"CC(C)(O)C1CCN(C[C@H](O)Cn2nc(-c3ccc(C(F)(F)F)c(SCCN4CCCC(F)C4)c3)c3c2CCN(S(C)(=O)=O)C3)CC1 (stereo partly drawn) [Example 656, (2S)-1-{3-[3-{[2-(3-Fluoropiperidin-1-yl)ethyl]sulfanyl}-4-(trifluoromethyl)phenyl]-5-(methylsulfonyl)-4,5,6,7-tetrahydro-1H-pyrazolo[4,3-c]pyridin-1-yl}-3-[4-(1-hydroxy-1-methylethyl)piperidin-1-yl]propan-2-ol]",90
16,"CS(=O)(=O)N1CCc2c(c(-c3ccc(C(F)(F)F)c(SCCN4CCOCC4)c3)nn2CC(O)CN2CCC(Cc3ccccc3)CC2)C1 (stereo not shown) [Example 704, 1-[5-(Methylsulfonyl)-3-{3-[(2-morpholin-4-ylethyl)sulfanyl]-4-(trifluoromethyl)phenyl}-4,5,6,7-tetrahydro-1H-pyrazolo[4,3-c]pyridin-1-yl]-3-[4-(phenylmethyl)piperidin-1-yl]propan-2-ol]",150
17,"O=C(CC1CCNCC1)N1CCc2c(c(-c3ccc(C(F)(F)F)c(SCCN4CCOCC4)c3)nn2CC(O)CN2CCCCC2)C1 (stereo not shown) [Example 242, 1-[3-{3-[(2-Morpholin-4-ylethyl)sulfanyl]-4-(trifluoromethyl)phenyl}-5-(piperidin-4-ylacetyl)-4,5,6,7-tetrahydro-1H-pyrazolo[4,3-c]pyridin-1-yl]-3-piperidin-1-ylpropan-2-ol]",580
18,"CS(=O)(=O)N1CCc2c(c(-c3ccc(C(F)(F)F)c(SCCN4CCCC(CO)C4)c3)nn2CC(O)CN2CCN(c3ccccc3O)CC2)C1 (stereo not shown) [Example 838, 2-[4-(2-Hydroxy-3-{3-[3-({2-[3-(hydroxymethyl)piperidin-1-yl]ethyl}sulfanyl)-4-(trifluoromethyl)phenyl]-5-(methylsulfonyl)-4,5,6,7-tetrahydro-1H-pyrazolo[4,3-c]pyridin-1-yl}propyl)piperazin-1-yl]phenol]",45
19,"CS(=O)(=O)N1CCc2c(c(-c3ccc(C(F)(F)F)c(SCCN4CCCCC4)c3)nn2CC(O)CN2CCN(c3ccccc3F)CC2)C1 (stereo not shown) [Example 733, 1-[4-(2-Fluorophenyl)piperazin-1-yl]-3-[5-(methylsulfonyl)-3-{3-[(2-piperidin-1-ylethyl)sulfanyl]-4-(trifluoromethyl)phenyl}-4,5,6,7-tetrahydro-1H-pyrazolo[4,3-c]pyridin-1-yl]propan-2-ol]",20
20,"CS(=O)(=O)N1CCc2c(c(-c3ccc(Cl)c(SCCc4cnccn4)c3)nn2CCCN2CCOCC2)C1 [Example 138, 3-[4-Chloro-3-(2-pyrazin-2-yl-ethylsulfanyl)-phenyl]-5-methanesulfonyl-1-(3-morpholin-4-yl-propyl)-4,5,6,7-tetrahydro-1H-pyrazolo[4,3-c]pyridine]",3100
21,"CS(=O)(=O)N1CCc2c(c(-c3ccc(C(F)(F)F)c(SCCNCCCO)c3)nn2CCCN2CCC(N3CCCC3=O)CC2)C1 [Example 598, 1-[1-(3-{3-[3-({2-[(3-Hydroxypropyl)amino]ethyl}sulfanyl)-4-(trifluoromethyl)phenyl]-5-(methylsulfonyl)-4,5,6,7-tetrahydro-1H-pyrazolo[4,3-c]pyridin-1-yl}propyl)piperidin-4-yl]pyrrolidin-2-one]",530
22,"COc1ccccc1N1CCN(CC(O)Cn2nc(-c3ccc(C(F)(F)F)c(SCCN4CCOCC4)c3)c3c2CCN(S(C)(=O)=O)C3)CC1 (stereo not shown) [Example 785, 1-{4-[2-(Methyloxy)phenyl]piperazin-1-yl}-3-[5-(methylsulfonyl)-3-{3-[(2-morpholin-4-ylethyl)sulfanyl]-4-(trifluoromethyl)phenyl}-4,5,6,7-tetrahydro-1H-pyrazolo[4,3-c]pyridin-1-yl]propan-2-ol]",40
